Tests used:
DAT [1] = target: T1, DAT (Homo sapiens, UniProt Q01959); conditions: efflux assays
5-HT2C = 5-HT2C (Homo sapiens, UniProt P28335); assay: cell-based
DAT [2] = target: T1, DAT; conditions: uptake inhibition; DAT/SERT ratio = 1/DAT / 1/SERT

The chains behind the UniProt entries cited, without tags or fusion partners. Residues count along the entry.
UniProt Q01959, whole entry: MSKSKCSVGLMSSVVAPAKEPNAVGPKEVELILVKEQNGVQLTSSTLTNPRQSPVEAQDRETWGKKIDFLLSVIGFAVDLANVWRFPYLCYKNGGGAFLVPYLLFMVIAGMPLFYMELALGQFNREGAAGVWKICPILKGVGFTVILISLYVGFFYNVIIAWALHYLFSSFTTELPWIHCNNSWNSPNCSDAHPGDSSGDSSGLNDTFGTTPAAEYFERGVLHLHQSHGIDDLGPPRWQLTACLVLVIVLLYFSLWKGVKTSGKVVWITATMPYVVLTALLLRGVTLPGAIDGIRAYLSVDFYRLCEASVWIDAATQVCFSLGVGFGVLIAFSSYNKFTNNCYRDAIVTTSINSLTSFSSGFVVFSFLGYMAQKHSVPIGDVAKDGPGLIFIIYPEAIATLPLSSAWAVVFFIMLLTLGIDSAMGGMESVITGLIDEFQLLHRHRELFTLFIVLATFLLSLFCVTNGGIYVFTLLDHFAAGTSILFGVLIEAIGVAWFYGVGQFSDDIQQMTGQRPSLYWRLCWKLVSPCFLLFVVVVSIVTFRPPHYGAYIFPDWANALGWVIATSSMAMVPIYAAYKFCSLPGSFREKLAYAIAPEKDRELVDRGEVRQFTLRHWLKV
UniProt P28335, 33-458: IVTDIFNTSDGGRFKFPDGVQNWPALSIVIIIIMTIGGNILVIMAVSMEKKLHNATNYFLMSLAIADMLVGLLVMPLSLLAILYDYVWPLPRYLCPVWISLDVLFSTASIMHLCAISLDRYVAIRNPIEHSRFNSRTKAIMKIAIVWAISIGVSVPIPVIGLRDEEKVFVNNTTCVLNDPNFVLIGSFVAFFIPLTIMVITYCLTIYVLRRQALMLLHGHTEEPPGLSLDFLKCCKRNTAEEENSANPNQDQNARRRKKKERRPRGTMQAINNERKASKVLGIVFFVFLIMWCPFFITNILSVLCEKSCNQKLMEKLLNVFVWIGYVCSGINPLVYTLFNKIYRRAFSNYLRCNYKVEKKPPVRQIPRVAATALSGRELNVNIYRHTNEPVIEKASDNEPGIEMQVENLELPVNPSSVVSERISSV

CNC(C)Cc1ccc2c(c1)OCO2 (stereo not drawn) [MDMA, 3,4-Methylenedioxymethamphetamine]
DAT/SERT ratio (EC50) (DAT [1]): 0.21 | EC50 (5-HT2C): 664 nM | Emax (5-HT2C; HEK-293T, read-out: Emax ± SEM, %5-HT response 5-HT2C): 85 ± 6% | DAT/SERT ratio (IC50) (DAT [2]): 0.42

CC(N)Cc1ccc2c(c1)OCO2 (stereo not drawn) [MDA, 3,4-Methylenedioxyamphetamine, reference compound]
DAT/SERT ratio (EC50) (DAT [1]): 0.65 | DAT/SERT ratio (IC50) (DAT [2]): 2.03
